We go through 1 compound from ChEMBL document CHEMBL1131557, “Trans-4-methyl-3-imidazoyl pyrrolidine as a potent, highly selective histamine H3 receptor agonist in vivo” (Bioorg Med Chem Lett, 1998).

In the test the target is Histamine H1 receptor (Cavia porcellus) (UniProt P31389). As to the kind of experiment: Ratio of ED50 of H1 receptor to that of ED50 of H3 receptor was determined.

Bounds are passed on as bounds.

Regarding `C[C@H]1NCC[C@@H]1c1c[nH]cn1`, the Ratio was above 550.
